Tests used:
[1] = system: MHH-CALL-4; assay: Cytotoxicity assay (resazurin, 72 hours); type: cell-based; conditions: Homo sapiens, MHHCALL4, read-out: HHCALL4 (nM), MHHCALL4 EC50
[2] = molecular target: T1, JAK2 (Homo sapiens, UniProt O60674, I682F); assay: Immunoblot protein degradation in MHH-CALL-4 cells; type: cell-based
T1 construct: degradation of JAK2 and GSPT1 in MHH-CALL-4 cells; endogenous in cells; host or cells: MHH-CALL-4

The chains behind the UniProt entries cited, without tags or fusion partners.
UniProt O60674, whole entry I682F: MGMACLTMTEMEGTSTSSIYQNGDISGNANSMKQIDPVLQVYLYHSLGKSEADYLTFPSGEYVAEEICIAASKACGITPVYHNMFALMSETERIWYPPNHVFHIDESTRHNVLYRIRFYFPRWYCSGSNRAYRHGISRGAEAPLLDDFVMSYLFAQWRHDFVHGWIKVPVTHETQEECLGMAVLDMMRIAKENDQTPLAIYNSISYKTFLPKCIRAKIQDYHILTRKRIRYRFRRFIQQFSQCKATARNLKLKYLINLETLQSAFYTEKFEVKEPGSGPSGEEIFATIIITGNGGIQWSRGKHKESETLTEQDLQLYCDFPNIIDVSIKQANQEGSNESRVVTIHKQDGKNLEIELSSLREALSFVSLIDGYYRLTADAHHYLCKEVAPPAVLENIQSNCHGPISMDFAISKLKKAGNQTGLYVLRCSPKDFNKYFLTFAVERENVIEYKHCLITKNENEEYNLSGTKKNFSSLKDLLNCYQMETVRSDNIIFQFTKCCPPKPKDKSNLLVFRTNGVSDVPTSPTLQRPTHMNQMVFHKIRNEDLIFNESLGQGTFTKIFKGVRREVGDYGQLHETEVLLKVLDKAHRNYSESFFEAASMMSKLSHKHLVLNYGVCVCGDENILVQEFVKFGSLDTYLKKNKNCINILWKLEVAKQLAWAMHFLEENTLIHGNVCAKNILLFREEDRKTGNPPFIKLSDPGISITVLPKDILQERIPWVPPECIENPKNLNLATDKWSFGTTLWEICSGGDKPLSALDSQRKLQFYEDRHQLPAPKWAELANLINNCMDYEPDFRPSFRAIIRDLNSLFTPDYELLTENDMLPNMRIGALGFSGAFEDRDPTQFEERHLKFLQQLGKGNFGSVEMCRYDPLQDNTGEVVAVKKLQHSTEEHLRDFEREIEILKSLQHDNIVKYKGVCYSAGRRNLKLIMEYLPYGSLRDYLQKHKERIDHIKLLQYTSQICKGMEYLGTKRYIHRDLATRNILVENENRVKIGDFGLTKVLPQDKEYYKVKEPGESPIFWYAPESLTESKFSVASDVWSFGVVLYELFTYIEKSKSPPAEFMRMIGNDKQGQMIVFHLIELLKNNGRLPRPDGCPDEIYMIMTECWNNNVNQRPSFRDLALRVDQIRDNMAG

[3] = system: Human CD45+ leukemic cells purified from patient derived xenografts (PDX); assay: Ex vivo cytotoxicity (MTT)
[4] = system: JAK-STAT5 signaling pathway; assay: Phosphoflow analysis in MHH-CALL-4 cells with or without TSLP; type: cell-based, human; conditions: 1 μM, one hour before TSLP 25 ng/mL for 30 minutes
Procedure: Cells (7.5×105) were treated with compounds in 3 ml of IMDM containing 1% BSA for one hour followed by treatment with or without 25 ng/mL TSLP (R&D systems) for 30 minutes. Cells were fixed for 10 minutes at room temperature by adding 1 ml of 10% UltraPure Formaldehyde (Polysciences), centrifuged for 5 minutes at 450 g, resuspended in 95% methanol (Electron Microscopy Sciences) and store at −20° C. Cells were stained with phosphorylated (p)STAT5-Ax647(#612599, BD), pJAK2 Y1007/1008 (#3776, Cell Signaling Technologies), Anti-Rabbit-BV-421 (#406410, Biolegend), hCD45-BV605 (#564047, BD) and hCD19-PE (t #349209, BD). Mouse IgG2u-Ax647 (Cat #558053, BD) was used as isotype control. Cells were analyzed on BD Biosciences LSR/Fortessa (BD Biosciences, Franklin Lakes, NJ) with BD FACSDiva 7.0 software followed by FlowJo v10 (Tree Star, Inc., Ashland, OR).

CCS(=O)(=O)N1CC(CC#N)(n2cc(-c3nc(Nc4ccc(C(=O)NCCN5CCN(c6ccc7c(c6)C(=O)N(C6CCC(=O)NC6=O)C7=O)CC5)cc4)nc4[nH]ccc34)cn2)C1 (stereo not shown) [Compound 8] was tested, and the EC50 [1] was 3200 nM and the “extent of degradation of JAK2” value [2] was “preferential”.
N#CC[C@H](C1CCCC1)n1cc(-c2ncnc3[nH]ccc23)cn1 [Ruxolitinib, reference compound] was tested, and the “cytotoxicity in PDX cells ex vivo” value [3] was “not” and the “JAK inhibition (phosphoflow)” value [4] was “comparable JAK inhibition”.

Source: patent publication US20260258049A1, “Molecules and Methods Related to Treatment of Uncontrolled Cellular Proliferation” (ST. JUDE CHILDREN'S RESEARCH HOSPITAL, priority 2019, published 2026)
